# Bioassay records: PubChem, Broad Institute
# Compounds with a hit are over-represented: about 1.3% of the library has one in this group of screens.
# UUG fidelity: modulators of yeast start codon fidelity, primary screen, whole organism, S. cerevisiae, single point, plate reader; S. cerevisiae UUG-firefly luciferase reporter, luminescence/redox ratio; activity score, % at 18.7 µM; actives 0.13% (n = 350,000);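 active means replicate mean at a twofold rise or more, about +100% in these data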;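 further: firefly luciferase made from a UUG start codon reports start codon fidelity; reporter light over untreated wells divided by growth signal over untreated wells; some hits fall short of that in this replicate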
# EWS-Fli inh: inhibitors of EWS/Fli oncoprotein transcriptional activity; A673 NR0B1-luciferase reporter, viability-normalised; inhibition, % at 12.6 µM; 350,000 tested, 0.67% active; AID 651661;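 active means mean inhibition of at least 50% after viability correction, with every replicate also passing that limit; inconclusive means mean reaches 50% but only one of two replicates passes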;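 further: firefly luciferase signal divided by Alamar Blue viability fluorescence both relative to DMSO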
# miR-122 sensor: inhibitors of miR-122 in Huh7 cells | activation (reporter increase), % at 12.5 µM | 340,000 tested, 0.3% active | Huh7 miR-122 Renilla luciferase sensor, 48 h; neutral wells = 0, positive control = 100;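 active means mean replicate activation score at least 90 and every replicate individually at or above 90; inconclusive means only one of the two criteria met; inactive means neither criterion met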;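 further: higher luciferase means less miR-122 activity so hits act as miR-122 inhibitors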
# CFTR F508del cor: correctors of CFTR F508del function in bronchial epithelial cells. CFBE cells, YFP halide quenching; stimulated with forskolin plus potentiator P3; % fluorescence drop versus neutral controls. AID 720511. activity (quench increase), % at 7.58 µM. 350,000 tested, 0.36% active;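 active means mean added fluorescence quench of at least 8% versus neutral control, with both replicates also reaching 8%; inconclusive means only one of the mean or replicate conditions met; inactive means mean below 8% and not both replicates reaching 8%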;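 further: cells transiently co-express mutant CFTR-F508del with the halide-sensitive YFP; corrector assay measuring rescue of mutant channel to the surface after 24 h compound exposure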
# PglD DTNB: blocks C. jejuni PglD acetyltransferase activity | purified PglD enzyme, DTNB colorimetric CoA detection | 360,000 tested, 0.098% active | inhibition, % at 12.5 µM; in the data active means inhibition above about 16%, passing the limit was not always enough; inconclusive means no clear call, values can overlap the other calls
# LGR2 inh: inhibitors of bursicon-induced Drosophila LGR2 receptor cAMP signaling; inhibition, % at 9.99 µM; HEK293 LGR2, CRE-luciferase, bursicon-stimulated, 4 h; 380,000 tested, 0.35% active;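 active means drop in luminescence signal, shown as inhibition above about 50% in the replicate tests, limit read from the data, passing the limit was not always enough; inconclusive means probably only some replicates passing the limit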;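 further: agonist challenge used bursicon conditioned medium at about half maximal strength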
# Numbers without * were called inactive; ? = inconclusive; nt = no result; [ ] = another dose, or the depositor's remark.
SMILES	UUG fidelity	EWS-Fli inh	miR-122 sensor	CFTR F508del cor	PglD DTNB	LGR2 inh
Cc1cc(Cl)ccc1NC(=O)Cn1cncn1	-14	6	-1	-1	6	21
Cc1onc(-c2c(F)cccc2Cl)c1C(=O)Nc1ccc(Cl)c(S(=O)(=O)N(C)C)c1	nt	6	nt	-2	nt	-13
Cn1c(NCc2ccccc2F)nc2cc(-c3ccccc3)sc2c1=O	-16	0	-4	-3	3	-17
Cn1c(NCc2ccccc2F)nc2cc(-c3ccsc3)sc2c1=O	-13	-2	-1	8.1*	-2	-63
CC1=C(SCc2ccccc2)C(=O)c2ccccc2C1=O	-14	39	nt	-2	-8	27
O=C1C(SCCO)=C(SCCO)C(=O)c2ccccc21	-42	64*	-16	10*	-2	19
O=C(C(c1ccccc1)c1ccccc1)N1CCOCC1	-11	nt	213*	nt	-4	nt
Cc1ccc(S(=O)(=O)N(Cc2cc3ccccc3[nH]c2=O)c2cccc(C)c2)cc1	-12	?	-2	14*	6	-5
CCc1ccc(S(=O)(=O)/N=C2\C=C(Nc3ccc(C(=O)O)cc3)C(=O)c3ccccc32)cc1	-25	19	-1	3	1	103*
CCOC(=O)Cn1ccc(O)c(Cc2ccc(Cl)cc2Cl)c1=O	-11	nt	-8	nt	-2	-3
COc1ccc(N(C)S(=O)(=O)c2cccc(C(=O)NC3CCCC3)c2)cc1	-15	11	26	4	3	8
COc1ccc(N(C)S(=O)(=O)c2cccc(C(=O)NCC3CCCCC3)c2)cc1	nt	5	nt	8.7*	nt	12
COc1ccc(NS(=O)(=O)c2cc(C)ccc2NC(=O)c2cc(C)oc2C)cc1	6	nt	404*	nt	-1	nt
COc1ccc(NS(=O)(=O)c2cccc(C(=O)NNC(=O)c3cc(C)oc3C)c2)cc1	nt	-9	nt	nt	nt	-3
O=C1C(=O)c2cccnc2-c2ncccc21	nt	42	nt	0	nt	100*
O=C1c2cccnc2-c2ncccc21	-16	nt	3	nt	-2	nt
C=Cc1ccc(Cn2c(C)c(C(=O)NCc3cccc(C(F)(F)F)c3)sc2=O)cc1	-5	-8	nt	-1	-4	7
C=CC(=O)N1C/C(=C/c2ccccc2)C(=O)/C(=C\c2ccccc2)C1	nt	72*	-20	-1	nt	100*
O=C1C(=Cc2ccc(Cl)cc2)Cc2ccccc21	nt	-61	nt	-2	nt	-54
C=CC(=O)N1C/C(=C/c2ccc(Cl)cc2)C(=O)/C(=C\c2ccc(Cl)cc2)C1	nt	77*	nt	-9	nt	104*

# Another view of part of the listing above:
COc1ccc(N(C)S(=O)(=O)c2cccc(C(=O)NC3CCCC3)c2)cc1
  UUG fidelity: -15
  EWS-Fli inh: 11
  miR-122 sensor: 26
  CFTR F508del cor: 4
  PglD DTNB: 3
  LGR2 inh: 8
COc1ccc(N(C)S(=O)(=O)c2cccc(C(=O)NCC3CCCCC3)c2)cc1
  UUG fidelity: nt
  EWS-Fli inh: 5
  miR-122 sensor: nt
  CFTR F508del cor: 8.7*
  PglD DTNB: nt
  LGR2 inh: 12

# Part of the list above with just UUG fidelity, LGR2 inh and CFTR F508del cor.
Molecule	UUG fidelity	LGR2 inh	CFTR F508del cor
COc1ccc(N(C)S(=O)(=O)c2cccc(C(=O)NCC3CCCCC3)c2)cc1	nt	12	8.7*
COc1ccc(NS(=O)(=O)c2cc(C)ccc2NC(=O)c2cc(C)oc2C)cc1	6	nt	nt
COc1ccc(NS(=O)(=O)c2cccc(C(=O)NNC(=O)c3cc(C)oc3C)c2)cc1	nt	-3	nt
O=C1C(=O)c2cccnc2-c2ncccc21	nt	100*	0
O=C1c2cccnc2-c2ncccc21	-16	nt	nt

# More results
SMILES	UUG fidelity	EWS-Fli inh	miR-122 sensor	CFTR F508del cor	PglD DTNB	LGR2 inh
CN(C)C(=O)c1cccc(-c2ccccc2[C@H]2[C@@H](CO)N(C(=O)C3CCC3)[C@H]2C#N)c1	nt	-4	nt	1	nt	3
O=C(O/N=C1\CCS(=O)(=O)c2sccc21)c1ccc(F)cc1	-18	12	-3	-2	-13	-42
O=C(O/N=C1\CCS(=O)(=O)c2sccc21)c1ccccc1	-12	nt	170*	nt	-4	0
COCCCn1cc(CN2CC(N3CCCC3)CS2(=O)=O)nn1 (configuration not stated)	nt	-6	nt	1	nt	11
CCCCCCCCCn1c2c(c(=N)c3c1CCC3)CCC2	-4	nt	-47	nt	-1	nt
CCCCCCCn1c2c(c(=N)c3c1CCC3)CCCC2	nt	63*	nt	-3	nt	nt
CC(=O)c1ccc(Nc2cc(C)nc3c(C)cc(C)cc23)cc1	nt	16	12	17*	nt	99*
CC(C)CCN(N=O)[C@@H](Cc1ccccc1)CN(N=O)[C@@H](Cc1ccccc1)CN(C)N=O	-23	16	nt	-3	0	13
CN(C[C@H](Cc1ccccc1)N(C[C@H](Cc1ccccc1)N(CCC(C)(C)C)N=O)N=O)N=O	-14	22	2	8.8*	0	-1
COc1ccc(C2C(C(=O)Nc3cc(OC)c(OC)c(OC)c3)c3ccccc3C(=O)N2C)cc1 (configuration not stated)	0	60*	29	0	12	4
COc1ccc(C2C(C(=O)Nc3cccc(OC)c3)c3ccccc3C(=O)N2C)cc1 (configuration not stated)	-1	5	nt	-3	-2	3
CC1(C)CC[C@]2(C(=O)n3ccnc3)CC[C@]3(C)[C@H](C(=O)C=C4[C@@]5(C)C=C(C#N)C(=O)C(C)(C)[C@@H]5CC[C@]43C)[C@@H]2C1	nt	76*	nt	-31	nt	9
O=C(COC(=O)COc1ccccc1F)NCCc1ccc(F)cc1	-17	3	-3	9.1*	-5	-1
COc1ccc(Nc2nnc(-c3ccc(N4CCOCC4)c([N+](=O)[O-])c3)c3ccccc23)cc1	nt	nt	41	nt	nt	-14
Cc1cc(C(=O)CSc2nnc(N)s2)c(C)n1Cc1cccs1	nt	nt	nt	nt	nt	75*
CC(C)N1C(=O)CC(Nc2ccc(N3CCOCC3)cc2)C1=O (configuration not stated)	-15	nt	183*	nt	-11	nt
COc1ccc(NC2CC(=O)N(C(C)C)C2=O)cc1 (configuration not stated)	-10	-72	-2	-2	-1	-36
CC1CCC2C(=O)N(c3cccc(C(=O)Nc4ccc(F)cc4)c3)C(=O)C2C1 (configuration not stated)	-12	12	-5	-1	0	6
COc1ccc(C(C#N)CC(=O)c2ccc3c(c2)OCO3)cc1OC (configuration not stated)	-3	-1	nt	14*	6	-1
C[C@@H]1CCCCO[C@@H](CN(C)Cc2ccc(Cl)c(Cl)c2)[C@@H](C)CN([C@H](C)CO)C(=O)c2cc(NC(=O)Nc3ccccc3)ccc2O1	-2	-3	9[16.7 µM]	-2	-2	24
Cc1ccc(CCNC(=O)CCNS(=O)(=O)c2ccc3c(c2)c(=O)n(C)c(=O)n3C)cc1	-4	nt	-3	nt	3	nt
Cn1c(=O)c2cc(S(=O)(=O)NCCC(=O)NCCC3=CCCCC3)ccc2n(C)c1=O	0	9	103*	-1	5	5
Cc1c(C)c2cc(Cl)c(OCC(=O)Nc3ccccn3)cc2oc1=O	-6	-13	-5	-1	-1	-3
O=C(COc1ccc(Cl)cc1Cl)Nc1ccccn1	-90	60*	-1	-2	13	100*
Cc1c(C)c2ccc(OCC(=O)Nc3ccccn3)c(C)c2oc1=O	-76	nt	2	-3	-3	100*
CCCN1C[C@H](C)[C@H](OC)CN(C)C(=O)c2ccc(NC(=O)c3ccccc3F)cc2OC[C@@H]1C	nt	-2	nt	-3	2	-1
CCCNC(=O)CCNC(=O)c1ccc(C(C)(C)C)cc1	-15	nt	3	nt	3	nt
COc1ccccc1NC(=O)COC(=O)CCS(=O)(=O)c1ccc(C)cc1	-18	1	-6	-1	5	26
O=C(N/N=C/c1cccs1)C(O)c1ccccc1 (configuration not stated)	6	-3	197*	-2	-5	-8
O=C(N/N=C/c1ccccc1)C(O)c1ccccc1 (configuration not stated)	-16	10	11	-7	-2	-6
